{"sequences": {"note": "Amino acid sequences for entries named in this document (tags omitted).", "UniProt P28347, whole entry": "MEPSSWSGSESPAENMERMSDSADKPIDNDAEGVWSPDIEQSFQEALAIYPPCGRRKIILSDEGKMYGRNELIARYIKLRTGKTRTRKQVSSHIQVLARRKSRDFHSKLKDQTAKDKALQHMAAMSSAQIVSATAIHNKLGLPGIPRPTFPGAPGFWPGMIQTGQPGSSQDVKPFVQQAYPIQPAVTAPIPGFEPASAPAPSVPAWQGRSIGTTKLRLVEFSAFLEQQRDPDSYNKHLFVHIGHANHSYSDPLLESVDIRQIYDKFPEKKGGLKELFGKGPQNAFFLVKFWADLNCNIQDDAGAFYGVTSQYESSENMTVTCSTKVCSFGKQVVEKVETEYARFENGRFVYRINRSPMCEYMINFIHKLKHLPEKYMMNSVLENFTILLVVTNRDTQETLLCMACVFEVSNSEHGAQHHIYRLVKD"}, "source": "paper PMC8143797", "target": "3HA-TEAD1 (human) (UniProt P28347)", "data": [{"substance": "Double Flag YAP-TFE3 S94A", "values": [{"measurement": "quantitative RT-PCR, expression of Ccn2(Ctgf), a YAP target gene, in NIH 3T3 cells, YAP-TFE3 S94A compared to the YAP-TFE3 control (fold decrease)", "result": 7}]}]}
